# Reference: patent publication EP1903056A2
# Key:
# Conditions in all cases: remark: other sources report otherwise
# [1] = molecular target: HLA-B*4501 (human); assay: competitive inhibition of labelled peptide binding to purified HLA
# [2] = molecular target: HLA-B*4403 (human); assay: as above
# [3] = molecular target: HLA-B*4002 (human); assay: competitive inhibition of labeled reference peptide binding to purified HLA
# [4] = molecular target: HLA-B*4402 (human); assay: as above
# [5] = molecular target: HLA-B*4001 (human); assay: as above
# [6] = molecular target: HLA-B*4501 (human); assay: as above
# [7] = molecular target: HLA-B*1801 (human); assay: as above
# [8] = molecular target: HLA-B*4403 (human); assay: as above
# [9] = molecular target: HLA-A*3301 (human); assay: inhibition of 125I-HBV 141.Y7 binding to purified HLA
# [10] = molecular target: HLA-A*6801 (human); assay: inhibition of 125I-A3con binding to purified HLA
# [11] = molecular target: HLA-A*1101 (human); assay: inhibition of 125I-A3con binding to purified HLA
# [12] = molecular target: HLA-B*4002 (human); assay: competition binding assay, purified HLA class I
# [13] = molecular target: HLA-B*4403 (human); assay: competition binding assay, purified HLA class I
# [14] = molecular target: HLA-B*1801 (human); assay: competition binding assay, purified HLA class I
# [15] = molecular target: HLA-B*4001 (human); assay: competition binding assay, purified HLA class I
# [16] = molecular target: HLA-B*4501 (human); assay: competition binding assay, purified HLA class I
# [17] = molecular target: HLA-B*4402 (human); assay: competition binding assay, purified HLA class I
# [18] = molecular target: HLA-A*3301 (human); assay: competition vs 125I probe peptide, purified HLA
# [19] = molecular target: HLA-A*0301 (human); assay: competition vs 125I probe peptide, purified HLA
# [20] = molecular target: HLA-B*5101 (human); assay: competition vs 125I probe peptide, purified HLA
# [21] = molecular target: HLA-B*5301 (human); assay: competition vs 125I probe peptide, purified HLA
# [22] = molecular target: HLA-A*0202 (human); assay: competitive inhibition, purified HLA
# [23] = molecular target: HLA-B*5401 (human); assay: competition vs 125I probe peptide, purified HLA
# [24] = molecular target: HLA-B*0702 (human); assay: competition vs 125I probe peptide, purified HLA
# [25] = molecular target: HLA-B*3501 (human); assay: competition vs 125I probe peptide, purified HLA
# [26] = molecular target: HLA-A*0101 (human); assay: competition vs 125I probe peptide, purified HLA
# [27] = molecular target: HLA-A*2402 (human); assay: competition with 125I-A24con, purified HLA
# [28] = molecular target: HLA-B*0702 (human); assay: competition with 125I-A*0201 signal sequence 5-13a.Y7, purified HLA
# [29] = molecular target: HLA-B*5101 (human); assay: competition with 125I-B35con2, purified HLA
# [30] = molecular target: HLA-B*3501 (human); assay: competition with 125I-B35con2, purified HLA
# [31] = molecular target: HLA-B*5301 (human); assay: competition with 125I-B35con2, purified HLA
# [32] = molecular target: HLA-B*5401 (human); assay: competition with 125I-B35con2, purified HLA
# [33] = molecular target: HLA-A*0101 (human); assay: competition with 125I-J chain peptide, purified HLA
binder,measurement,setting,value
"PEGRYTFGASCV [Her2/neu position 285, 12-mer]",IC50,[1],356 nM
same,IC50,[2],348 nM
"DEAPRMPEA [… (p53, position 61, 9-mer)]",IC50,[3],4.58 µM
same,IC50,[4],6.45 µM
"FEVRVCACPG [… (p53, position 270, 10-mer)]",IC50,[5],2.04 µM
same,IC50,[6],1.87 µM
"GEYFTLQI [GEYFRLQI (p53, position 325, 8-mer)]",IC50,[4],3.51 µM
same,IC50,[7],7770 nM
"HERCSDSDG [… (p53, position 179, 9-mer)]",IC50,[6],13.4 µM
same,IC50,[4],2.03 µM
same,IC50,[7],1120 nM
"LEDSSGNLL [… (p53, position 257, 9-mer)]",IC50,[3],2.77 µM
same,IC50,[4],1.86 µM
"RERFEMF [RERFEMF (p53, position 335, 7-mer)]",IC50,[3],1.91 µM
"LELKDAQAG [… (p53, position 348, 9-mer)]",IC50,[5],18.7 µM
same,IC50,[3],3.66 µM
same,IC50,[6],1.99 µM
same,IC50,[4],5.13 µM
"VEPPLSQET [… (p53, position 10, 9-mer)]",IC50,[5],17.1 µM
same,IC50,[4],3.19 µM
same,IC50,[8],236 nM
"VEYLDDRNT (modifications not checked) [… (p53, position 203, 9-mer)]",IC50,[6],13.5 µM
same,IC50,[4],10.1 µM
same,IC50,[7],1440 nM
"NEALELKDA [… (p53, position 345, 9-mer)]",IC50,[5],3.89 µM
same,IC50,[3],6.64 µM
same,IC50,[4],4.27 µM
same,IC50,[8],1580 nM
RTLTLFNVTR [CEA.554],IC50,[9],1.61 µM
RVLTLFNVTR [CEA.554.V2],IC50,[10],42 nM
same,IC50,[11],94 nM
same,IC50,[9],7.63 µM
"GEPHISY [GEPHISY (MAGE2 position 295, 7-mer)]",IC50,[12],6.72 µM
same,IC50,[13],272 nM
same,IC50,[14],8830 nM
"EEEGPSTFPDL [BBBGPSTFPDL (MAGE3 position 91, 11-mer)]",IC50,[15],431 nM
same,IC50,[12],2.12 µM
same,IC50,[16],158 nM
same,IC50,[17],2680 nM
same,IC50,[13],102 nM
same,IC50,[14],935 nM
"QEEEGPSTF [… (MAGE3 position 90, 9-mer)]",IC50,[12],16.1 µM
same,IC50,[17],324 nM
same,IC50,[13],529 nM
same,IC50,[14],841 nM
VVFGILIKRR [Her2/neu.669 (10-mer)],IC50,[18],193 nM
same,IC50,[19],3.67 µM
IPWQRLLLTA [CEA.13],IC50,[20],2120 nM
same,IC50,[21],2660 nM
HLYQGCQVV [Her2/neu.48],IC50,[22],307 nM
IPWQRLLLTI [CEA.13I10],IC50,[21],291 nM
LPQHLFGYSW [CEA.58],IC50,[23],4.35 µM
LPQHLFGYSI [CEA.58I10],IC50,[20],262 nM
YPNASLLI [CEA.102],IC50,[20],8.1 nM
same,IC50,[24],196 nM
same,IC50,[25],514 nM
SPAFDNLYI [Her2/neu.1214 (…)],IC50,[20],229 nM
same,IC50,[21],155 nM
APAPAPSW [p53.84],IC50,[25],3270 nM
APAPAPSI [p53.84.I8],IC50,[21],291 nM
same,IC50,[24],275 nM
ASSFSTTINY [MAGE2.68],IC50,[26],1560 nM
SSLPTTMNY [MAGE3.69],IC50,[26],676 nM
GSVVGNWQY [MAGE3.137],IC50,[26],4240 nM
IMPKAGLLII [MAGE3.195 …],IC50,[27],240 nM
YPNASLLI [CEA.102 YPNASLLI],IC50,[28],196 nM
same,IC50,[29],8.1 nM
same,IC50,[30],514 nM
MPKAGLLIII [MAGE3.196.I10 …],IC50,[28],324 nM
same,IC50,[29],62 nM
same,IC50,[31],176 nM
same,IC50,[30],2400 nM
same,IC50,[32],102 nM
HSASNPSPQY [CEA.616 …],IC50,[33],74 nM
